Here are results for two compounds from patent US20240018102A1, “COMPOUNDS AND COMPOSITIONS FOR TREATING CONDITIONS ASSOCIATED WITH LPA RECEPTOR ACTIVITY” (Lhotse Bio, Inc., priority 2020, published 2024).

Protein sequences, listed by entry. Tags and fused reporters are not part of them.
UniProt Q92633, whole entry: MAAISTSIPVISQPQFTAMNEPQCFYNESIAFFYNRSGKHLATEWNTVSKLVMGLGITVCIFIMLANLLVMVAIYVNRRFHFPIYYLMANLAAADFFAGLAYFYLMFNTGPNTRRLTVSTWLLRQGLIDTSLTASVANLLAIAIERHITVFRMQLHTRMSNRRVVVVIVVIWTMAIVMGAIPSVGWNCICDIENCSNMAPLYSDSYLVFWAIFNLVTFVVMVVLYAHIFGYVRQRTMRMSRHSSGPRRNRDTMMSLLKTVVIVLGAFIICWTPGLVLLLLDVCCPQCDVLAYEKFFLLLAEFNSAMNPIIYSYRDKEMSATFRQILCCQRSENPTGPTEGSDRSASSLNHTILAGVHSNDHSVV

This experiment concerns the target human LPA1 (Homo sapiens, UniProt Q92633). Briefly: In vitro LPA1 calcium flux antagonist assay, Bioduro protocol. To be noted: read-out: IC50 (nM) in Assay B2; CHO-K1 cells overexpressing human LPA1 and G15a; LPA challenge at EC80; calcium mobilization on FLIPR Tetra. As to the method: In Vitro LPA1 Calcium Flux Antagonist Assay Bioduro Protocol
CHO-K1 cells overexpressing human LPA1 and G15a were seeded at a total volume of 20 uL (15000 cells/well) into Matrigel pre-coated 384-well plates (coming -3764) and incubated at 37° C. After overnight incubation, the cells were serum starved for 4 h. Assays were performed in dye loading buffer containing 1× Fluo-8 AM (AAT Bioquest, 21080) and 2.5 mM probenecid (Thermo Fisher, 36400) in HBSS/20 mM Hepes. After cell starvation, the medium was replaced with 20 uL of dye loading buffer and incubated at 37° C. for 30 min. Then 5 uL of 5× compound titrated in dye loading buffer was added to the cells and incubated for 30 min followed by LPA challenge at EC80. Calcium mobilization was measured on a FLIPR Tetra (MDS). For LPA EC80 determination, starved cells were incubated with 20 uL of dye loading buffer for 1 h, then 5 uL of 5×LPA titrated in dye loading buffer was added to the cells. Calcium signals induced by LPA was monitors on a FLIPR.
Percentage inhibition is calculated using the following formula:
% Inhibition=100%×(1−(mean RFU of test sample−mean RFU of DMSO)/(mean RFU of LPA control−mean RFU of DMSO)).
On the technique in general: A change in cytosolic calcium serves as a functional read-out for many receptors and channels.

The IC50 is the concentration needed to halve the response being measured. `COc1cc([C@@H](O)[C@H](Cc2nc3c(C(=O)O)cccc3s2)OCC(C)C)cc(OC)c1C`: the IC50 turned out to be 17.9 nM.

Consider `COc1cc([C@@H](O)[C@H](Cc2nc(CC(=O)O)c(CC(C)C)s2)OC2CCCC2)cc(OC)c1C`, for which the IC50 turned out to be 37.1 nM.
